Source: patent publication US9181303B2, “Treatment of bacterial infections with cyclic antimicrobial peptides” (N[…], priority 2005, dated 2015)

Tests used:
[1] = system: pooled human red blood cells; assay: Haemolysis assay; assay type: cell-based
Procedure: The peptide under study was aliquoted at the desired concentration in triplicate in Nunc 96 well plates, and serial 1:1 dilutions (100 μl) were made. 100 μl of washed (3 washes of 50 ml HBSS) pooled human red blood cells (RBC) (1×10^8 RBC/ml) were added to the test wells and incubated at 37° C. for 3 hours. After incubation a further 100 μl of HBSS was added to all the wells and the plate was incubated at 4° C. overnight. 100 μl of the supernatant was removed and placed in a fresh microtitre plate which was read in a Sunrise plate reader (Tascam) at 450/620 nm. Control wells (quadruplicate) of buffer alone, buffer and RBCs, and H2O and RBC were also included. The data were plotted and statistically analyzed using Graph Pad (Prism software).

[2] = Hepatotoxicity of cyclized peptides; details: at concentrations similar to those demonstrating antifungal activity
[3] = Maximum Concentration Tested 10.0 mM

| Substance | Haemolysis [1, 3] | other results |
| --- | --- | --- |
| Cyclic-R-R-R-R-R-R-R-G [Peptide 4] | None |  |
| Cyclic-K-K-K-K-K-K-K-G [Peptide 3] | None |  |
| Cyclic-R-R-R-R-R-R-R [Peptide 2] |  | Haemolysis ([1]; Maximum Concentration Tested 73.7 mM): None; Hepatotoxicity [2]: no hepatotoxicity |
| Cyclic-DO-DO-DO-DO-DO-DO-DO-G [Peptide 7] | None |  |
| Cyclic-DK-DK-DK-DK-DK-DK-DK-G [Peptide 8] | None |  |
| Cyclic-O-O-O-O-O-O-O-G [Peptide 5] | None |  |
| Cyclic-DR-DR-DR-DR-DR-DR-DR-G [Peptide 6] |  | Haemolysis ([1]; Maximum Concentration Tested 5.0 mM): None |
